Assay results from publication PMC10971414 (Science Advances, 2024).

Tested on: L858R/T790M EGFR phosphorylation in FKBP12^F36V-PTPN2 H1975 cells
Assay: EGFR dephosphorylation by Western blot in FKBP12F36V-PTPN2 H1975 cells
Assay type: cell-based
Conditions: 24 h, irrespective of EGF stimulation (fig. S16)

SMILES: COc1cc2ncnc(Nc3ccc(F)c(Cl)c3)c2cc1OCCCN1CCOCC1 [gefitinib]
- EGFR dephosphorylation in H1975: limited EGFR dephosphorylation
